Reference: ChEMBL document CHEMBL4819093, “Discovery of 1-[2-(1-methyl-1H-pyrazol-5-yl)-[1,2,4]triazolo[1,5-a]pyridin-6-yl]-3-(pyridin-4-ylmethyl)urea as a potent NAMPT (nicotinamide phosphoribosyltransferase) activator with attenuated CYP inhibition” (Bioorg Med Chem Lett, 2021)

Protein sequences, listed by entry. Tags and fused reporters are not part of them. Lines headed by an entry give the natural chain unless they say otherwise; changes in a name come on top.
UniProt P43490: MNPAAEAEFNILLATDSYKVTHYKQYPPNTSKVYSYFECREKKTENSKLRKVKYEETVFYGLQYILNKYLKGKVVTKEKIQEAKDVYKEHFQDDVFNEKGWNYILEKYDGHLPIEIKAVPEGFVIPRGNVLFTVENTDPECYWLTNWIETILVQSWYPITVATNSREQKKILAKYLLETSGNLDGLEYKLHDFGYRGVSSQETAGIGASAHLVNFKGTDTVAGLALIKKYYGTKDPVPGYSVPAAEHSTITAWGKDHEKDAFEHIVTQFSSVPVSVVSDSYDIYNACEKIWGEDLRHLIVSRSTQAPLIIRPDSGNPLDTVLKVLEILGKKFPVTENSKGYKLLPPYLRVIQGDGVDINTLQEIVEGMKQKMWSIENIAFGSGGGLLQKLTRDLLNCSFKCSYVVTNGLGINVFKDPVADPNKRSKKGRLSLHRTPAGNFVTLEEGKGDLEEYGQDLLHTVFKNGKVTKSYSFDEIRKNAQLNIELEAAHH

Molecular target: Nicotinamide phosphoribosyltransferase (Homo sapiens, UniProt P43490)

EC50: 3.3 µM
Compound: CCOC(=O)c1ccc(NC(=O)NCc2ccncc2)cc1
